Results: patent US20050257279A1, “Agouti-related protein deficient cells, non-human transgenic animals and methods of selecting compounds which regulate energy metabolism” (priority 2002, published 2005)

By UniProt entry, the sequences of proteins in these tests, tags left out.
UniProt Q92847, whole entry: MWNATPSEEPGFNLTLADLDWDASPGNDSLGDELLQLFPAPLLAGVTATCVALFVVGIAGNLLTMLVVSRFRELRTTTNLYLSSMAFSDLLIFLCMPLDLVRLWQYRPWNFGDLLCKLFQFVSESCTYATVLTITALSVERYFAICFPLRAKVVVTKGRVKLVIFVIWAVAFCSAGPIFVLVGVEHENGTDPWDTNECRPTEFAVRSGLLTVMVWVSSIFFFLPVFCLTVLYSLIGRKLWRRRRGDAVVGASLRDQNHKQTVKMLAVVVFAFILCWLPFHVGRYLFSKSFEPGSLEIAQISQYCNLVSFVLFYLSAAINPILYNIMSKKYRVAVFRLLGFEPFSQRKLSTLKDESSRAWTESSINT

Key:
[1] = biological target: T1, human ghrelin-R (GHSR1a) (Homo sapiens, UniProt Q92847); experiment: 125I-human ghrelin membrane binding assay; details: read-out: 125I-human ghrelin binding IC50; COS-7 membranes expressing human GHSR1a; [His[125I]]-human ghrelin 0.1 nM
[2] = 4-hour light-phase food intake in mice; details: for effect on 4-hour food intake: versus saline
[3] = tested on: primary cultures of rat anterior pituitary cells; experiment: Rat pituitary growth hormone (GH) release; details: read-out: Pituitary GH Release EC50, 15 min incubation
[4] = biological target: human ghrelin receptor (GHSR1a) (Homo sapiens, UniProt Q92847); experiment: Aequorin bioluminescence assay (intracellular calcium mobilization); details: read-out: Aequorin Function EC50; stable cell line expressing human GHSR1a and aequorin
[5] = biological target: T1, human ghrelin-R (GHSR1a); experiment: 35S-MK-0677 membrane binding assay; details: read-out: 35S-MK-0677 Binding IC50; COS-7 membranes expressing human GHSR1a; [35S]MK-0677 0.05 nM
[6] = Compound A 3 mg/kg PO, wild-type control mice

With `CN(C)C(=O)[C@@H]1CC2(CCN(C(=O)[C@@H](CCCc3ccccc3)NC(=O)C(C)(C)N)CC2)c2ccccc21` the pIC50 [1] was 9.52, the “effect on 4-hour food intake” value ([2]; Compound A 3 mg/kg PO, NPY single knockout mice) was “greatly diminished” and the “4-hour daytime food intake” value ([2]; Compound A 3 mg/kg PO, Npy-/- single knockout mice) was 0.17 ± 0.07 g. For the same compound, the “4-hour daytime food intake” value [2, 6] was 0.59 ± 0.06 g, the “stimulation of 4-hour daytime food intake versus saline” value [2, 6] was 4 fold and the “effect on 4-hour food intake” value ([2]; Compound A 3 mg/kg PO, wild-type mice) was “significantly stimulated food intake”. For the same compound, the “effect on 4-hour light cycle food intake” value ([2]; Compound A PO 1, 3, 10 and 20 mpk, C57B6 mice, versus vehicle) was “significantly stimulated”, the “dose giving maximum stimulation of feeding” value ([2]; Compound A PO dose response, C57B6 mice) was 3 mg/kg and the pEC50 [3] was 9.15. For the same compound, the pEC50 [4] was 8.51 and the pIC50 [5] was 10.00.

pEC50, pIC50: −log10 of the molar value.
